Test results: EP4831156A1, “SUBSTITUTED N-(4-TRIFLUOROMETHYL)-2-CYANOCROTONAMIDE COMPOUND, PREPARATION METHOD THEREFOR, AND PHARMACEUTICAL COMPOSITION AND USE THEREOF” (dated 2026)

What was measured:
[1] = system: Acetic Acid-induced Writhing Response in Mice; experiment: Acetic acid-induced writhing response in mice; conditions: 40 mg/kg oral, 0.6% acetic acid i.p. 30 min after administration; for Writhing times within 20 min: x±s, n=8
[2] = system: Experimental Autoimmune Encephalomyelitis (EAE) Mice; experiment: Experimental autoimmune encephalomyelitis (EAE) mouse model: LFB staining, IL-17A and IFN-γ detection, neurological score; conditions: 5 mg/kg for 14 consecutive days; for IL-17A level in spinal: Fig. 3; for IFN-γ level in spinal: Fig. 4; for demyelinated areas (LFB staining, spinal cord): compared with the Teriflunomide group
[3] = system: ICR mice; experiment: Tolerance study of test drugs in mice; conditions: for Clinical observation: 200 mg/kg intraperitoneally once daily for 4 consecutive days; for Tolerance dose: intraperitoneally once daily for 4 consecutive days
[4] = system: PC3; experiment: Anticancer activity, CellTiter-Glo Luminescent Cell Viability Assay; conditions: read-out: IC50 (µM) PC3; 72 h incubation
[5] = system: DU145 cells; experiment: as above; conditions: read-out: IC50 (µM) DU145; 72 h incubation
[6] = system: H460 cells; experiment: as above; conditions: read-out: IC50 (µM) H460; 72 h incubation
[7] = system: A549 cells; experiment: as above; conditions: read-out: IC50 (µM) A549; 72 h incubation
[8] = system: 786-O cells; experiment: as above; conditions: read-out: IC50 (µM) 786-O; 72 h incubation
[9] = system: LNCaP cells; experiment: as above; conditions: read-out: IC50 (µM) LNCaP; 72 h incubation

Structure (SMILES)	Writhing inhibition rate (%) [1]	Writhing times within 20 min [1]	Clinical observation [3]	Tolerance dose [3]	other results
COC(=O)N/C(C)=C(\C#N)C(=O)Nc1ccc(C(F)(F)F)cc1	80.9%	6.6 ···			
C/C(NC(=O)NCCCC[C@H](N)C(=O)O)=C(/C#N)C(=O)Nc1ccc(C(F)(F)F)cc1					IL-17A level in spinal ([2]; compared with the model group): significantly decreased; IFN-γ level in spinal ([2]; compared with the model group): significantly reduced
CCOC(=O)OCn1c(C)c(C#N)c(=O)n(-c2ccc(C(F)(F)F)cc2)c1=O			No adverse reactions.	> 200 mg/kg	
N#C/C(=C\N)C(=O)Nc1ccc(C(F)(F)F)cc1	76.0%	8.3 ···			
C/C(NC(=O)Nc1ccc(C[C@H](N)C(=O)O)cc1)=C(/C#N)C(=O)Nc1ccc(C(F)(F)F)cc1	82.5%	6 ···			
Cc1c(C#N)c(=O)n(-c2ccc(C(F)(F)F)cc2)c(=O)n1CC(C)C			No adverse reactions.	> 200 mg/kg	
C/C(NO)=C(/C#N)C(=O)Nc1ccc(C(F)(F)F)cc1	76.7%	8 ···			
CS/C(C(=O)Nc1ccc(C(F)(F)F)cc1)=C(/C)OC(C)=O	73.1%	9.3 ··			
CCCCCCCCCCCCCC(=O)N/C(C)=C(\C#N)C(=O)Nc1ccc(C(F)(F)F)cc1			No adverse reactions.	> 200 mg/kg	
C/C(=C(/C#N)C(=O)Nc1ccc(C(F)(F)F)cc1)N1CCCC1	73.5%	9.1 ···			
Cc1c(C#N)c(=O)n(-c2ccc(C(F)(F)F)cc2)c(=O)n1C(=O)c1ccccc1			No adverse reactions.	> 200 mg/kg	
CCn1c(C)c(C#N)c(=O)n(-c2ccc(C(F)(F)F)cc2)c1=O			No adverse reactions.	> 200 mg/kg	
CC(=O)n1c(C)c(C#N)c(=O)n(-c2ccc(C(F)(F)F)cc2)c1=O			No adverse reactions.	> 200 mg/kg	
COC(=O)[C@@H](N)COC(=O)N/C(C)=C(\C#N)C(=O)Nc1ccc(C(F)(F)F)cc1			No adverse reactions.	> 200 mg/kg	demyelinated areas (LFB staining, spinal cord) ([2]; Fig. 2): significantly smaller; IL-17A level in spinal ([2]; compared with the model group): significantly decreased; IFN-γ level in spinal ([2]; compared with the model group): significantly reduced
C/C(NCC(N)C(=O)O)=C(/C#N)C(=O)Nc1ccc(C(F)(F)F)cc1 (stereo not shown)	76.4%	8.1 ···			
C/C(=C(/C#N)C(=O)Nc1ccc(C(F)(F)F)cc1)N(C)C	88.4%	4 ···			
C/C(NC(=O)N1CCCCC1)=C(/C#N)C(=O)Nc1ccc(C(F)(F)F)cc1			No adverse reactions.	> 200 mg/kg	
COC(=O)[C@@H](N)[C@@H](C)OC(=O)N/C(C)=C(\C#N)C(=O)Nc1ccc(C(F)(F)F)cc1	80.0%	6.9 ···			
CC(=O)OCn1c(C)c(C#N)c(=O)n(-c2ccc(C(F)(F)F)cc2)c1=O			No adverse reactions.	> 200 mg/kg	
CCOC(=O)OC[C@H]1OC(N/C(C)=C(\C#N)C(=O)Nc2ccc(C(F)(F)F)cc2)[C@H](O)[C@@H](O)[C@@H]1O (stereo partly shown)	81.3%	6.4 ···			
Cc1c(C#N)c(=O)n(-c2ccc(C(F)(F)F)cc2)c(=O)n1C			No adverse reactions.	> 200 mg/kg	
CCOC(=O)/C=C/C(=O)N/C(C)=C(\C#N)C(=O)Nc1ccc(C(F)(F)F)cc1					IC50 [4]: 4.61 µM; IC50 [5]: 3.32 µM; IC50 [6]: 1.07 µM; IC50 [7]: 4.96 µM; IC50 [8]: 1.25 µM; IC50 [9]: 3.01 µM
COC(=O)[C@@H](N)Cc1ccc(NC(=O)N/C(C)=C(\C#N)C(=O)Nc2ccc(C(F)(F)F)cc2)cc1	78.8%	7.3 ···			

Structure (SMILES)	Writhing inhibition rate (%) [1]	Writhing times within 20 min [1]	Clinical observation [3]	Tolerance dose [3]	other results
Cc1c(C#N)c(=O)n(-c2ccc(C(F)(F)F)cc2)c(=O)n1COP(=O)(O)O	75.9%	8.3 ···	No adverse reactions.	> 200 mg/kg	
CS/C(C(=O)Nc1ccc(C(F)(F)F)cc1)=C(/C)O	72.7%	9.4 ···			
C/C(N)=C(/C#N)C(=O)Nc1ccc(C(F)(F)F)cc1	74.2%	8.9 ···			
Cc1oncc1C(=O)Nc1ccc(C(F)(F)F)cc1					IC50 [4]: 9.16 µM; IC50 [5]: 4.65 µM; IC50 [6]: 5.43 µM; IC50 [7]: 7.86 µM; IC50 [8]: 6.67 µM; IC50 [9]: 5.43 µM
CCCCOC(=O)[C@@H](N)COC(=O)N/C(C)=C(\C#N)C(=O)Nc1ccc(C(F)(F)F)cc1					IL-17A level in spinal ([2]; compared with the model group): significantly decreased; IFN-γ level in spinal ([2]; compared with the model group): significantly reduced
COC(=O)Cn1c(C)c(C#N)c(=O)n(-c2ccc(C(F)(F)F)cc2)c1=O			No adverse reactions.	> 200 mg/kg	
C/C(NP(=O)(O)O)=C(/C#N)C(=O)Nc1ccc(C(F)(F)F)cc1	74.5%	8.8 ···	No adverse reactions.	> 200 mg/kg	IFN-γ level in spinal ([2]; compared with the model group): significantly reduced
CC1=CC(=O)N(CCCCCC(=O)N/C(C)=C(\C#N)C(=O)Nc2ccc(C(F)(F)F)cc2)C1=O					IC50 [4]: 1.95 µM; IC50 [5]: 2.64 µM; IC50 [6]: 1.12 µM; IC50 [7]: 2.66 µM; IC50 [8]: 1.99 µM; IC50 [9]: 0.84 µM
CCOC(=O)[C@@H](N)COC(=O)N/C(C)=C(\C#N)C(=O)Nc1ccc(C(F)(F)F)cc1					IL-17A level in spinal ([2]; compared with the model group): significantly decreased; IFN-γ level in spinal ([2]; compared with the model group): significantly reduced
C/C(NC(=O)OC[C@H](N)C(=O)O)=C(/C#N)C(=O)Nc1ccc(C(F)(F)F)cc1					IFN-γ level in spinal ([2]; compared with the model group): significantly reduced
Cc1c(C#N)c(=O)n(-c2ccc(C(F)(F)F)cc2)c(=O)n1COC(=O)C(C)(C)C			No adverse reactions.	> 200 mg/kg	
CCc1c(C#N)c(=O)n(-c2ccc(C(F)(F)F)cc2)c(=O)n1C	74.4%	8.8 ···	No adverse reactions.	> 200 mg/kg	
C/C(NC(=O)CCCCCN1C(=O)C=CC1=O)=C(/C#N)C(=O)Nc1ccc(C(F)(F)F)cc1					IC50 [4]: 2.57 µM; IC50 [5]: 2.58 µM; IC50 [6]: 1.17 µM; IC50 [7]: 5.51 µM; IC50 [8]: 1.49 µM; IC50 [9]: 0.37 µM
Cc1c(C#N)c(=O)n(-c2ccc(C(F)(F)F)cc2)c(=O)n1Cc1ccccc1			No adverse reactions.	> 200 mg/kg	
C/C(NC(=O)CCN1C(=O)C=CC1=O)=C(/C#N)C(=O)Nc1ccc(C(F)(F)F)cc1					IC50 [4]: 3.79 µM; IC50 [5]: 2.89 µM; IC50 [6]: 1.23 µM; IC50 [7]: 5.02 µM; IC50 [8]: 1.09 µM; IC50 [9]: 1.99 µM
C/C(NC(=O)OC[C@H](N)C(=O)OC(C)C)=C(/C#N)C(=O)Nc1ccc(C(F)(F)F)cc1					IL-17A level in spinal ([2]; compared with the model group): significantly decreased; IFN-γ level in spinal ([2]; compared with the model group): significantly reduced
CC(C)OC(=O)OCCc1[nH]c(=O)n(-c2ccc(C(F)(F)F)cc2)c(=O)c1C#N			No adverse reactions.	> 200 mg/kg	
Cc1c(C#N)c(=O)n(-c2ccc(C(F)(F)F)cc2)c(=O)n1COC(=O)c1ccccc1			No adverse reactions.	> 200 mg/kg	
Cc1[nH]c(=O)n(-c2ccc(C(F)(F)F)cc2)c(=O)c1C#N			No adverse reactions.	> 200 mg/kg	
C/C(=C(/C#N)C(=O)Nc1ccc(C(F)(F)F)cc1)N1CCOCC1	70.1%	10.3 ···			demyelinated areas (LFB staining, spinal cord) ([2]; Fig. 2): significantly smaller; lightly stained blue regions or unstained white regions in the spinal cord tissue (LFB staining) ([2]; compared with the model group, Fig. 2): significantly reduced; IFN-γ level in spinal ([2]; compared with the model group): significantly reduced
Cc1nc(OC2CCCC2)n(-c2ccc(C(F)(F)F)cc2)c(=O)c1C#N	68.6%	10.8 ± 3.2	No adverse reactions.	> 200 mg/kg	
C/C(NOCc1ccccc1)=C(/C#N)C(=O)Nc1ccc(C(F)(F)F)cc1	77.6%	7.7 ···			IC50 [4]: 2.33 µM; IC50 [5]: 2.68 µM; IC50 [6]: 1.59 µM; IC50 [7]: 4.03 µM; IC50 [8]: 1.22 µM; IC50 [9]: 2.93 µM
